Some of these compounds have results that are not shown, active ones among them.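 Cells were grown in 96-well plates and exposed to each compound for 48 hours at five concentrations; endpoints were interpolated linearly between bracketing concentrations, or set to the highest concentration if not reached. GI50 = concentration required for 50% inhibition of growth. The concentration for full growth arrest is given as TGI.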
Experiments:
Assay in all cases: NCI anticancer screen, dose series, 48 h
HS 578T breast = test system: HS 578T breast
A549 NSCLC = test system: A549 NSCLC
UACC-62 melanoma = test system: UACC-62 melanoma
UACC-257 melanoma = test system: UACC-257 melanoma
HL-60(TB) leukemia = test system: HL-60(TB) leukemia
MCF7 breast = test system: MCF7 breast
HOP-62 NSCLC = test system: HOP-62 NSCLC
MOLT-4 leukemia = test system: MOLT-4 leukemia
MDA-MB-435 = test system: MDA-MB-435
HOP-92 NSCLC = test system: HOP-92 NSCLC
SK-MEL-28 melanoma = test system: SK-MEL-28 melanoma
MALME-3M melanoma = test system: MALME-3M melanoma
SF-268 CNS = test system: SF-268 CNS
SR leukemia = test system: SR leukemia
SF-539 CNS = test system: SF-539 CNS
786-0 renal = test system: 786-0 renal
SW-620 colon = test system: SW-620 colon
LOX IMVI melanoma = test system: LOX IMVI melanoma
HT29 colon = test system: HT29 colon
OVCAR-3 ovarian = test system: OVCAR-3 ovarian
CAKI-1 renal = test system: CAKI-1 renal
DU-145 prostate = test system: DU-145 prostate
NCI-H522 lung = test system: NCI-H522 lung
U251 CNS = test system: U251 CNS
UO-31 renal = test system: UO-31 renal
CCRF-CEM leukemia = test system: CCRF-CEM leukemia
NCI-H226 lung = test system: NCI-H226 lung
SK-OV-3 ovarian = test system: SK-OV-3 ovarian
SNB-19 CNS = test system: SNB-19 CNS
SN12C renal = test system: SN12C renal
TK-10 renal = test system: TK-10 renal
COLO 205 colon = test system: COLO 205 colon
OVCAR-4 ovarian = test system: OVCAR-4 ovarian
ACHN renal = test system: ACHN renal
SF-295 CNS = test system: SF-295 CNS
NCI-H322M lung = test system: NCI-H322M lung
SK-MEL-2 melanoma = test system: SK-MEL-2 melanoma
T-47D breast = test system: T-47D breast
OVCAR-8 ovarian = test system: OVCAR-8 ovarian
K-562 leukemia = test system: K-562 leukemia
M14 melanoma = test system: M14 melanoma
NCI-H460 lung = test system: NCI-H460 lung
NCI/ADR-RES ovarian = test system: NCI/ADR-RES ovarian
SK-MEL-5 melanoma = test system: SK-MEL-5 melanoma
RPMI-8226 leukemia = test system: RPMI-8226 leukemia
RXF 393 renal = test system: RXF 393 renal
HCC-2998 colon = test system: HCC-2998 colon
A498 renal = test system: A498 renal
OVCAR-5 ovarian = test system: OVCAR-5 ovarian
NCI-H23 lung = test system: NCI-H23 lung
KM12 colon = test system: KM12 colon
EKVX NSCLC = test system: EKVX NSCLC
PC-3 prostate = test system: PC-3 prostate
IGROV1 ovarian = test system: IGROV1 ovarian
MDA-N = test system: MDA-N
MDA-MB-231 breast = test system: MDA-MB-231 breast
HCT-15 colon = test system: HCT-15 colon
HCT-116 colon = test system: HCT-116 colon
SNB-75 CNS = test system: SNB-75 CNS

O=C(OC1CN2CCC1CC2)C(O)(/C=C/c1ccccc1)c1ccccc1 (stereo not drawn) was tested, and the GI50 (HS 578T breast) was > 100 µM, the TGI (HS 578T breast) was > 100 µM and the GI50 (A549 NSCLC) was > 100 µM. The TGI (A549 NSCLC) was > 100 µM, the GI50 (UACC-62 melanoma) was > 100 µM and the TGI (UACC-62 melanoma) was > 100 µM. The GI50 (UACC-257 melanoma) was > 100 µM, the TGI (UACC-257 melanoma) was > 100 µM and the GI50 (HL-60(TB) leukemia) was > 100 µM. For the same compound, the TGI (HL-60(TB) leukemia) was > 100 µM, the GI50 (MCF7 breast) was > 100 µM and the TGI (MCF7 breast) was > 100 µM. For the same compound, the GI50 (HOP-62 NSCLC) was > 100 µM, the TGI (HOP-62 NSCLC) was > 100 µM and the GI50 (MOLT-4 leukemia) was > 100 µM. For the same compound, the TGI (MOLT-4 leukemia) was > 100 µM, the GI50 (MDA-MB-435) was > 100 µM and the TGI (MDA-MB-435) was > 100 µM. The GI50 (HOP-92 NSCLC) was 30.6 µM, the TGI (HOP-92 NSCLC) was 95.2 µM and the GI50 (SK-MEL-28 melanoma) was > 100 µM. The TGI (SK-MEL-28 melanoma) was > 100 µM, the GI50 (MALME-3M melanoma) was 18 µM and the TGI (MALME-3M melanoma) was > 100 µM. The GI50 (SF-268 CNS) was > 100 µM, the TGI (SF-268 CNS) was > 100 µM and the GI50 (SR leukemia) was > 100 µM. The TGI (SR leukemia) was > 100 µM, the GI50 (SF-539 CNS) was > 100 µM and the TGI (SF-539 CNS) was > 100 µM. The GI50 (786-0 renal) was > 100 µM, the TGI (786-0 renal) was > 100 µM and the GI50 (SW-620 colon) was > 100 µM. For the same compound, the TGI (SW-620 colon) was > 100 µM, the GI50 (LOX IMVI melanoma) was > 100 µM and the TGI (LOX IMVI melanoma) was > 100 µM. For the same compound, the GI50 (HT29 colon) was 47.4 µM, the TGI (HT29 colon) was > 100 µM and the GI50 (OVCAR-3 ovarian) was > 100 µM. The TGI (OVCAR-3 ovarian) was > 100 µM, the GI50 (CAKI-1 renal) was > 100 µM and the TGI (CAKI-1 renal) was > 100 µM. The GI50 (DU-145 prostate) was > 100 µM, the TGI (DU-145 prostate) was > 100 µM and the GI50 (NCI-H522 lung) was > 100 µM. The TGI (NCI-H522 lung) was > 100 µM, the GI50 (U251 CNS) was > 100 µM and the TGI (U251 CNS) was > 100 µM. For the same compound, the GI50 (UO-31 renal) was > 100 µM, the TGI (UO-31 renal) was > 100 µM and the GI50 (CCRF-CEM leukemia) was > 100 µM. For the same compound, the TGI (CCRF-CEM leukemia) was > 100 µM, the GI50 (NCI-H226 lung) was > 100 µM and the TGI (NCI-H226 lung) was > 100 µM. For the same compound, the GI50 (SK-OV-3 ovarian) was > 100 µM, the TGI (SK-OV-3 ovarian) was > 100 µM and the GI50 (SNB-19 CNS) was > 100 µM. For the same compound, the TGI (SNB-19 CNS) was > 100 µM, the GI50 (SN12C renal) was > 100 µM and the TGI (SN12C renal) was > 100 µM. For the same compound, the GI50 (TK-10 renal) was > 100 µM, the TGI (TK-10 renal) was > 100 µM and the GI50 (COLO 205 colon) was > 100 µM. The TGI (COLO 205 colon) was > 100 µM, the GI50 (OVCAR-4 ovarian) was > 100 µM and the TGI (OVCAR-4 ovarian) was > 100 µM. The GI50 (ACHN renal) was > 100 µM, the TGI (ACHN renal) was > 100 µM and the GI50 (SF-295 CNS) was > 100 µM. For the same compound, the TGI (SF-295 CNS) was > 100 µM, the GI50 (NCI-H322M lung) was > 100 µM and the TGI (NCI-H322M lung) was > 100 µM. For the same compound, the GI50 (SK-MEL-2 melanoma) was > 100 µM, the TGI (SK-MEL-2 melanoma) was > 100 µM and the GI50 (T-47D breast) was > 100 µM. For the same compound, the TGI (T-47D breast) was > 100 µM, the GI50 (OVCAR-8 ovarian) was > 100 µM and the TGI (OVCAR-8 ovarian) was > 100 µM. The GI50 (K-562 leukemia) was > 100 µM, the TGI (K-562 leukemia) was > 100 µM and the GI50 (M14 melanoma) was > 100 µM. The TGI (M14 melanoma) was > 100 µM, the GI50 (NCI-H460 lung) was > 100 µM and the TGI (NCI-H460 lung) was > 100 µM. For the same compound, the GI50 (NCI/ADR-RES ovarian) was > 100 µM, the TGI (NCI/ADR-RES ovarian) was > 100 µM and the GI50 (SK-MEL-5 melanoma) was > 100 µM. The TGI (SK-MEL-5 melanoma) was > 100 µM, the GI50 (RPMI-8226 leukemia) was > 100 µM and the TGI (RPMI-8226 leukemia) was > 100 µM. For the same compound, the GI50 (RXF 393 renal) was > 100 µM, the TGI (RXF 393 renal) was > 100 µM and the GI50 (HCC-2998 colon) was > 100 µM. For the same compound, the TGI (HCC-2998 colon) was > 100 µM, the GI50 (A498 renal) was 83.5 µM and the TGI (A498 renal) was > 100 µM. For the same compound, the GI50 (OVCAR-5 ovarian) was > 100 µM, the TGI (OVCAR-5 ovarian) was > 100 µM and the GI50 (NCI-H23 lung) was > 100 µM. The TGI (NCI-H23 lung) was > 100 µM, the GI50 (KM12 colon) was > 100 µM and the TGI (KM12 colon) was > 100 µM. The GI50 (EKVX NSCLC) was > 100 µM, the TGI (EKVX NSCLC) was > 100 µM and the GI50 (PC-3 prostate) was > 100 µM. For the same compound, the TGI (PC-3 prostate) was > 100 µM, the GI50 (IGROV1 ovarian) was > 100 µM and the TGI (IGROV1 ovarian) was > 100 µM. For the same compound, the GI50 (MDA-N) was > 100 µM, the TGI (MDA-N) was > 100 µM and the GI50 (MDA-MB-231 breast) was > 100 µM. For the same compound, the TGI (MDA-MB-231 breast) was > 100 µM, the GI50 (HCT-15 colon) was > 100 µM and the TGI (HCT-15 colon) was > 100 µM. The GI50 (HCT-116 colon) was > 100 µM, the TGI (HCT-116 colon) was > 100 µM and the GI50 (SNB-75 CNS) was 45.3 µM. For the same compound, the TGI (SNB-75 CNS) was > 100 µM.
